The target of this experiment is Nav 1.7 (Homo sapiens (Human), UniProt Q15858). Kind of experiment: in-vitro Nav 1.7 PX (IC50). Format: cell-based. To be noted: in-vitro Nav 1.7 PX data.

Protein sequences, listed by entry. Tags and fused reporters are not part of them.
UniProt Q15858, whole entry: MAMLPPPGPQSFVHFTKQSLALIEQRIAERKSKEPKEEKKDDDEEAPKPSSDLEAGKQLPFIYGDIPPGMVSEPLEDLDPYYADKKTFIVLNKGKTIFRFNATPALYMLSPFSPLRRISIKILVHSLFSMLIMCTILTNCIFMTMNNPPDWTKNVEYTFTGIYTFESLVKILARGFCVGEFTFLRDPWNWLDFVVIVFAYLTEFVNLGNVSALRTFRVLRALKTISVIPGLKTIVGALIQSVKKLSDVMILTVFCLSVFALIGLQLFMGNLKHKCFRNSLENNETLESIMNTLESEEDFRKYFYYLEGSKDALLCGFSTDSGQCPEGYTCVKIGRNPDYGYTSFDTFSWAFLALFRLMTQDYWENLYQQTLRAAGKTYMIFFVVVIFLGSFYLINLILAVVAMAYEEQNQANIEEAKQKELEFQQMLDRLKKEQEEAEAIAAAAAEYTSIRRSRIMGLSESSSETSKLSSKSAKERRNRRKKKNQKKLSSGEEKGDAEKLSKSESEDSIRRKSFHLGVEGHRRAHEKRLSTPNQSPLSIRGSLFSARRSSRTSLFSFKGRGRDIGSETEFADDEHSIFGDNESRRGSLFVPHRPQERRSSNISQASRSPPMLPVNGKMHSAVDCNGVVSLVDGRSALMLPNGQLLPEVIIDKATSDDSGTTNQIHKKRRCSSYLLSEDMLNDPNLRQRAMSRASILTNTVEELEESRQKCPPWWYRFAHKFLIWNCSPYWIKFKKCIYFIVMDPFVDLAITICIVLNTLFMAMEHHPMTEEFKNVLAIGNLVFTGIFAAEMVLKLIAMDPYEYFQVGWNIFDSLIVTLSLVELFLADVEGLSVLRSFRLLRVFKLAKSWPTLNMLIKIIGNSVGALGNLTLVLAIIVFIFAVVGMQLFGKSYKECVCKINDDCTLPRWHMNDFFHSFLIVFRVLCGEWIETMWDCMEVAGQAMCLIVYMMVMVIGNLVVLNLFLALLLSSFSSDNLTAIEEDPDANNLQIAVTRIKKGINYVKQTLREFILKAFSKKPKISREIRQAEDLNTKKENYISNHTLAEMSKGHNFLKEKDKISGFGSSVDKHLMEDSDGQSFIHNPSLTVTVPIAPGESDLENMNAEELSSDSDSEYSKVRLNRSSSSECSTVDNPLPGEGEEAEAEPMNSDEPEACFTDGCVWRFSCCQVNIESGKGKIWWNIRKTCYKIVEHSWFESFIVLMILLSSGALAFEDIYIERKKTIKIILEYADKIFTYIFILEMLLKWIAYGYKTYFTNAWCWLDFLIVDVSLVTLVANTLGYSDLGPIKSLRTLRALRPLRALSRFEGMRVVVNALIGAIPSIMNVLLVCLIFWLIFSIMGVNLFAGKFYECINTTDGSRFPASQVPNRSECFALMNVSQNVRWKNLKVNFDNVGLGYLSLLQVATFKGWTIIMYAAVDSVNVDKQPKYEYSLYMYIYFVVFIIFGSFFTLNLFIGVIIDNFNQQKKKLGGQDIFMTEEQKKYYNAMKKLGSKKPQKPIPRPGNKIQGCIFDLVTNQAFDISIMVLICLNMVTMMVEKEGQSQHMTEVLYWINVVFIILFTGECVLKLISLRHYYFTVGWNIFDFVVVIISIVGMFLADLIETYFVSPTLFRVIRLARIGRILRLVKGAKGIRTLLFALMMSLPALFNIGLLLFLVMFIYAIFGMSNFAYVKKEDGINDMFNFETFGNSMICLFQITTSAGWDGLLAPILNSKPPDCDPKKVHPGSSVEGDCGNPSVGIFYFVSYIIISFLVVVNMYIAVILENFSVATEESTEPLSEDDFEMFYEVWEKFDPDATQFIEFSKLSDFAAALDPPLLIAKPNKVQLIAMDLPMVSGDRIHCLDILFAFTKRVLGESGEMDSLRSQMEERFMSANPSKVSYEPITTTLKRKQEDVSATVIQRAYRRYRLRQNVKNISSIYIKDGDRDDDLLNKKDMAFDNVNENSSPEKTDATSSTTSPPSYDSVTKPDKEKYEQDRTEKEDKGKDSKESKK

Broadly, the IC50 is the concentration that gives 50% inhibition. “1-(4′-chloro-2-fluoro-5-methoxy-3′-methyl-4-biphenylyl)-2-oxo-N-2-pyrimidinyl-1,2-dihydro-6-quinoxalinesulfonamide [Example 1002]” returned an IC50 of 236 nM.

Values taken from patent US9212182B2, “Bicyclic sulfonamide compounds as sodium channel inhibitors” (AMGEN INC., priority 2013, dated 2015).
